Data: article PMC11032447

B1: mouse secretagogin [mouse] / C-terminal SNARE domain of mouse SNAP-25 [mouse] (parent)
chain 1: MDNARRKTPARLDAACFWQIWQRFDKEEKGYIRETELDAFFDHLLAKSGTEDTLMEENVQKVKEQLMTSHNVSKEGRILMKELASMFLSEDENFLLFFRLETPLDNSVEFMQIWRKYDADSSGFISAAELCNFLRDLFLHHKKNISEAELEEYTSTMMKIFDKNKDGRLDLNDLARILALQENFLLQFKMDASSTEERKRDFEKIFAHYDVSKTGALEGPEVDGFVKDMMELVQPSISGVDLDKFREILLRHCDVNKDGKIQKSELALCLGLKINP
chain 2: DARENEMDENLEQVSGIIGNLRHMALDMGNEIDTQNRQIDRIMEKADSNKTRIDEANQRATKMLGSG

Variants of: B1
Assay: ITC
Details: with C-terminal SNARE domain of mouse SNAP-25 [mouse]

Row | Variant | Kd [nM] | ratio to parent
1 | chain 1 MDNARRKTPARLDAACFWQIWQRFDKEEKGYIRETELDAFFDHLLAKSGTEDTLMEENVQKVKEQLMTSHNVSKEGRILMKELASMFLSEDENFLLFFRLETPLDNSVEFMQIWRKYDADSSGFISAAELCNFLRDLFLHHKKNISEAELEEYTSTMMKIFDKNKDGRLDLNDLARILALQENFLLQFKMDASSTEEAKRDFEKIFAHYDVSKTGALEGPEVDGFVKDMMELVQPSISGVDLDKFREILLRHCDVNKDGKIQKSELALCLGLKINP [chain 1 R198A] | 738 | 33.7
2 | chain 1 MDNARRKTPARLDAACFWQIWQRFDKEEKGYIRETELDAFFDHLLAKSGTEDTLMEENVQKVKEQLMTSHNVSKEGRILMKELASMFLSEDENFLLFFRLETPLDNSVEFMQIWRKYDADSSGFISAAELCNFLRDLFLHHKKNISEAELEEYTSTMMKIFDKNKDGRLDLNDLARILALQENFLLQFKMDASSTEERKRDFEKIFAHYDVSKTGALEGPEVDGFVKDEMELVQPSISGVDLDKFREILLRHCDVNKDGKIQKSELALCLGLKINP [chain 1 M229E] | 201 | 9.18

Variants with a lower Kd, results first:

Row | Kd [nM] | ratio to parent | Variant
3 | 42.6 | 1.95 | chain 1 MDNARRKTPARLDAACFWQIWQRFDKEEKGYIRETELDAFFDHLLAKSGTEDTLMEENVQKVKEQLMTSHNVSKEGRILMKELASMFLSEDENFLLFFRLETPLDNSVEFMQIWRKYDADSSGFISAAELCNFLRDLFLHHKKNISEAELEEYTSTMMKIFDKNKDGRLDLNDLARILALQENFLLQFKMDASSTEERKRDFEKIFAHYDVSKTGALEGPEVDGFVKDMMELVQPSISGVDLDKFREILLRHCDVNKDGKIQKSELALCAGLKINP [chain 1 L270A]
4 | 35.8 | 1.63 | chain 1 MDNARRKTPARLDAACFWQIWQRFDKEEKGYIRETELDAFFDHLLAKSGTEDTLMEENVQKVKEQLMTSHNVSKEGRILMKELASMFLSEDENFLLFFRLETPLDNSVEFMQIWRKYDADSSGFISAAELCNFLRDLFLHHKKNISEAELEEYTSTMMKIFDKNKDGRLDLNDLARILALQENFLLQFKMDASSTEERKRDFEKIFAHYDVSKTGALEGPEVDGFVKDAMELVQPSISGVDLDKFREILLRHCDVNKDGKIQKSELALCLGLKINP [chain 1 M229A]
5 | 27.3 | 1.25 | chain 1 MDNARRKTPARLDAACFWQIWQRFDKEEKGYIRETELDAFFDHLLAKSGTEDTLMEENVQKVKEQLMTSHNVSKEGRILMKELASMFLSEDENFLLFFRLETPLDNSVEFMQIWRKYDADSSGFISAAELCNFLRDLFLHHKKNISEAELEEYTSTMMKIFDKNKDGRLDLNDLARILALQENFLLQFKMDASSTEERKRDFEKIFAHYDVSKTGALEGPEVDGFVKDMMELAQPSISGVDLDKFREILLRHCDVNKDGKIQKSELALCLGLKINP [chain 1 V233A]
